Earlier results, collected in patent US20070199084A1, “Ubiquitination of Membrane Transporters” (VANDERBILT UNIVERSITY, priority 2005, published 2007).

Amino acid sequences for entries named in this document (tags omitted). Residues count along the entry.
UniProt A0A8I3S5A0, 1-617: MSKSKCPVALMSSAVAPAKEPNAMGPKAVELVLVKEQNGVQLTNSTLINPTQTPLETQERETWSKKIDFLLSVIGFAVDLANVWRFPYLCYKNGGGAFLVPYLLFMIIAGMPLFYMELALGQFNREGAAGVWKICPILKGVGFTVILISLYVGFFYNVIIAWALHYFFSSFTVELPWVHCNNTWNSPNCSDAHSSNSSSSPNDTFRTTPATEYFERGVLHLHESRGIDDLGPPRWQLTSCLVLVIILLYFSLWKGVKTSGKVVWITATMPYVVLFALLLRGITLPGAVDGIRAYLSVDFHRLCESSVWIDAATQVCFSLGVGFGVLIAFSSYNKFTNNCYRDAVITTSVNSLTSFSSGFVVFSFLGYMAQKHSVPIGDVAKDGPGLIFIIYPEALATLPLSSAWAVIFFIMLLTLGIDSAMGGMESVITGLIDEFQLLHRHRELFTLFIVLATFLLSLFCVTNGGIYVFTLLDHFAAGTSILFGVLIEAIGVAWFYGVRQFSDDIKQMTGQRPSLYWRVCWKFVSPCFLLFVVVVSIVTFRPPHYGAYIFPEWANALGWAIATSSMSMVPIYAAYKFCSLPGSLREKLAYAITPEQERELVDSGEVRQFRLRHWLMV

Molecular target: T1, dopamine transporter (Canis lupus familiaris, UniProt A0A8I3S5A0)
T1 construct: digitonin-solubilized dopamine transporters from dog caudate nucleus; from tissue; host or cells: dog caudate nucleus, digitonin-solubilized extract
Settings: digitonin-solubilized extract of dog caudate; cited from earlier work

## (−)-cocaine
  inhibition of soluble [3H]WIN 35,428 binding (competition studies): strongly
